Test system: ICR mice
Assay: Symptom and precipitation in lung after intravenous administration to mice (Example 7)
Format: in vivo
[1] = HP-β-CD concentration increases

With `CCn1c(=Cc2sc3c4ccccc4ccc3[n+]2CC)sc(=CC=C2Sc3ccc4ccccc4c3N2C)c1=O` [Compound 1] as the compound, how does the precipitation in lung (HP-β-CD 2.25 w/v %, Animal 1, after one day) read?
Its precipitation in lung is “+++”.

And the symptom after administration (HP-β-CD 2.25 w/v %, Animal 1, i.v. 3 mg/ml, 5 ml per 1 kg)?
The symptom after administration was “died”.

What about the symptom after administration (HP-β-CD 2.25 w/v %, Animal 2) of the same compound?
The symptom after administration was “died”.

What about the precipitation in lung (HP-β-CD 2.25 w/v %, Animal 2, after one day) of the same compound?
Its precipitation in lung is “+++”.

And the symptom after administration (HP-β-CD 2.25 w/v %, Animal 3)?
Its symptom after administration is “angor”.

And the precipitation in lung (HP-β-CD 2.25 w/v %, Animal 3, after one day)?
The precipitation in lung was “+++”.

What about the symptom after administration (HP-β-CD 4.5 w/v %, Animal 1) of the same compound?
The symptom after administration was “angor”.

And the precipitation in lung (HP-β-CD 4.5 w/v %, Animal 1, after one day)?
The precipitation in lung was “+++”.

What about the symptom after administration (HP-β-CD 4.5 w/v %, Animal 2) of the same compound?
The symptom after administration was “angor”.

And the precipitation in lung (HP-β-CD 4.5 w/v %, Animal 2, after one day)?
Its precipitation in lung is “+++”.

What about the symptom after administration (HP-β-CD 4.5 w/v %, Animal 3) of the same compound?
Its symptom after administration is “angor”.

What about the precipitation in lung (HP-β-CD 4.5 w/v %, Animal 3, after one day) of the same compound?
The precipitation in lung was “+++”.

What about the precipitation in lung (HP-β-CD 9.0 w/v %, Animal 1, after one day) of the same compound?
The precipitation in lung was “+++”.

And the precipitation in lung (HP-β-CD 9.0 w/v %, Animal 2, after one day)?
The precipitation in lung was “+++”.

What about the precipitation in lung (HP-β-CD 9.0 w/v %, Animal 3, after one day) of the same compound?
Its precipitation in lung is “++”.

What about the precipitation in lung (HP-β-CD 18 w/v %, Animal 1, after one day) of the same compound?
Its precipitation in lung is “+++”.

What about the precipitation in lung (HP-β-CD 18 w/v %, Animal 2, after one day) of the same compound?
Its precipitation in lung is “+”.

What about the precipitation in lung (HP-β-CD 18 w/v %, Animal 3, after one day) of the same compound?
Its precipitation in lung is “+”.

What about the “precipitation of Compound 1 in lung” value [1] of the same compound?
The value was “effectively inhibited”.

And the “toxity due to precipitation of Compound 1” value [1]?
The value was “reduced”.

Source: patent US5670530A, “Anti-cancer composition comprising rhodacyanine compound and cyclodextrin” (Fuji Photo Film Co., Ltd., priority 1995, dated 1997)
